The record followed here is patent US8455520B2, “Soluble epoxide hydrolase inhibitors, compositions containing such compounds and methods of treatment” (Merck Sharp & Dohme Corp., priority 2007, dated 2013).

Protein sequences, listed by entry. Tags and fused reporters are not part of them.
UniProt P34913, whole entry: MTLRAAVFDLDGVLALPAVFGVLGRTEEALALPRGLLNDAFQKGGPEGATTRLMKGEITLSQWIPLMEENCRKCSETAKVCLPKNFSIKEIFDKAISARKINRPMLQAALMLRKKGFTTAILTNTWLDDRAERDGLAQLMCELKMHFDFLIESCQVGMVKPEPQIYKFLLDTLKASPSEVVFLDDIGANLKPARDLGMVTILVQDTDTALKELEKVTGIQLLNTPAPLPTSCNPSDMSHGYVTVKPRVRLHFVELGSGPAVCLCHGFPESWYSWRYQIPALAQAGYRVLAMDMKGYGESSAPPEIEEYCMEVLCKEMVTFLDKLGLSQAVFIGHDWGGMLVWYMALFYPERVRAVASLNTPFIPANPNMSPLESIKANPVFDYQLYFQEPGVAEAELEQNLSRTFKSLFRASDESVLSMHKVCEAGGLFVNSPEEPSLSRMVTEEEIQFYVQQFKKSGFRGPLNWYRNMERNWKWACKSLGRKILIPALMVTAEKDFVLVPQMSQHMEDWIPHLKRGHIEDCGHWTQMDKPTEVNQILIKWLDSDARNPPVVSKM

For the experiment, the target named is human sEH enzyme (Homo sapiens, UniProt P34913). The experiment is described as follows: sEH human enzyme assay (fluorescence based enzyme in vitro assay). The following applies: read-out: IC50 [nM] for human sEH enzyme inhibition; recombinant human sEH about 1 nM, fluorescence substrate S7 10 uM, pH7.0, 25° C. The text has this: Preparation of Recombinant sEH Human Enzyme
The DNA for expressing sEH was designed based on a […] sEH cDNA. Necessary Modifications were introduced to optimize for its expression both in E. coli and insect cells. The designed DNA fragment encodes a protein sequence that is identical to full length human sEH, and the DNA was synthesized in vitro. The DNA was then subcloned into the pET100 vector that will generate a fusion protein with an N-terminal His-tag. The recombinant protein was expressed in E. coli. The sEH enzyme was affinity purified by a Ni^++ column. His-tag was removed by Enter Kinase (EK) digestion. The purified enzyme aliquots were frozen and held at −80° C. for later use.
Fluorescence Based Enzyme In Vitro Assay
For each assay (100 ul), an aliquot of enzymes (about 1 nM final concentration) was incubated with a fluorescence substrate, S7 (10 uM final concentration), in sEH assay buffer (25 mM HEPES, pH7.0, 0.1 mg/ml BSA) in a 96-well plate. The kinetic reaction reading (Ex330/Em465) was conducted using a plate reader, Spectra max (Molecular Devices) at 25° C.

For `O=C(Nc1ccc(C(F)(F)F)cc1)N1CCCC(COCc2cc(C(F)(F)F)cc(C(F)(F)F)c2)(c2ccccc2)C1` (centres unmarked), the IC50 (commonly the concentration that gives 50% inhibition) is 28 nM.
In the case of `O=C(Nc1ccc(C(F)(F)F)cc1)N1CCCC(Cc2ccccc2)(C(=O)NCc2ncco2)C1` (centres unmarked) it was under 1 nM.
